# Values quoted from earlier work, collected in US5631263A, “Use of delta opioid receptor antagonists to treat immunoregulatory disorders” (Minneapolis Medical Research Foundation, priority 1995, dated 1997).
# Test system: guinea pig ileum (GPI)
# Settings: standard result; cited from earlier work
smiles,measurement,value
C=CCN1CC[C@]23c4c5ccc(O)c4O[C@H]2C(=O)CC[C@@]3(O)[C@H]1C5 [naloxone],block of morphine's effects,block morphine's effects
